Experimental data published in PubChem BioAssay (NCATS).
Values joined by “and” are separate entries in the source; they are usually repeats but may differ in a detail not shown here. Identical values can stand only once. For some of these results: Shown are results outside the selection of hits, which stands elsewhere. Results filed as inconclusive are left out. Only a part is listed here, and it is no random draw. Where a structure was tested more than once in an assay, its records may differ in their call. Active and inactive are the calls of the source. Unless noted, calls follow the shape of the dose curve; as a rule, active = well fitted curve in the direction sought with a large enough effect; inconclusive = small, poorly fitted or top-dose-only effect, or another doubt; inactive = no such curve, though single readings can be large; an effect the other way counts as inactive or inconclusive.

Sequences of proteins named here, by UniProt entry; tags and fusion partners are left off. A change or cut given only in a name is not applied to a line headed by its entry.
UniProt P11712, whole entry, looked up: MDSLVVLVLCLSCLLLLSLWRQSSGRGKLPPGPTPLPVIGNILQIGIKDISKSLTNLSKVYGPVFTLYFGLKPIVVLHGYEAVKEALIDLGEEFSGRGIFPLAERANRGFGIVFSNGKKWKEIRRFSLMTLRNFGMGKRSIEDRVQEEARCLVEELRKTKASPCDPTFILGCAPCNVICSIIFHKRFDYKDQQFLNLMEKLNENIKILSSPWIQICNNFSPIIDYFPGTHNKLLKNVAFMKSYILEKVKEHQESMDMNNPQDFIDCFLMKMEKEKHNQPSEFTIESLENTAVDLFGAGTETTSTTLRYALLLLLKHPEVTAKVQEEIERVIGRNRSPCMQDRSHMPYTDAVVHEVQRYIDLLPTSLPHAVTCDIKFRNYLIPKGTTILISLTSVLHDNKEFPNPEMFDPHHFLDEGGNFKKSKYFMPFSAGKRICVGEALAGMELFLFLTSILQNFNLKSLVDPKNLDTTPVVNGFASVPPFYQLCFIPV
UniProt Q12809: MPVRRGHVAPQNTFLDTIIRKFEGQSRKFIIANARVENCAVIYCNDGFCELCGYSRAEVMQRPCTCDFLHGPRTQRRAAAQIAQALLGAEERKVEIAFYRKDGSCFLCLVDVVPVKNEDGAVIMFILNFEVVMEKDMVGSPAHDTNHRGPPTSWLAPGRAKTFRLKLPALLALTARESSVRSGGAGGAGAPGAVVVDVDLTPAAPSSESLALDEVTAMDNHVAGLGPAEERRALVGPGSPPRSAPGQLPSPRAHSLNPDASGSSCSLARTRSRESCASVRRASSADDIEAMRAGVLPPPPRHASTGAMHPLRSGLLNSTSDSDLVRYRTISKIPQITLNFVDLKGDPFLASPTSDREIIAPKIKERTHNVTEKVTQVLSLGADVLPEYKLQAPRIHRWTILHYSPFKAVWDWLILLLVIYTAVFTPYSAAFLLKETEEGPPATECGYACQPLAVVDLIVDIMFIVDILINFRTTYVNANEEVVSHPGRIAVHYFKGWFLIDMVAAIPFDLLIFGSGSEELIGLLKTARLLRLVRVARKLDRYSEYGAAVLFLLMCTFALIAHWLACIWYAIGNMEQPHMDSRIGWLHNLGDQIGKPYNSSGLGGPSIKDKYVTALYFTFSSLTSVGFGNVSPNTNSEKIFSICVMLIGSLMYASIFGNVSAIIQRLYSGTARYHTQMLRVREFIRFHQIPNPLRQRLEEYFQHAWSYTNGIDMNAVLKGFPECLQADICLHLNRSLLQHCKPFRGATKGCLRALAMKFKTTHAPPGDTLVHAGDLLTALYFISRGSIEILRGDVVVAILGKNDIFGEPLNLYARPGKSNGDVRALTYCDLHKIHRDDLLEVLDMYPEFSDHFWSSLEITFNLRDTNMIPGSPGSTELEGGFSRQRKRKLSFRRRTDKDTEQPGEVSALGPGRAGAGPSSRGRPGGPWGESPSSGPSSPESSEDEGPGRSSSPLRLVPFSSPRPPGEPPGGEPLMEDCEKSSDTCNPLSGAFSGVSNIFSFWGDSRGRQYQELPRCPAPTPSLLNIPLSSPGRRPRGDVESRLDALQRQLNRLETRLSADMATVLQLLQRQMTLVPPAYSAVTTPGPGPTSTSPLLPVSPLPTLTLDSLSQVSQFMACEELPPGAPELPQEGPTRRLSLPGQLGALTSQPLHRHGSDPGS
UniProt P07947, whole entry, looked up: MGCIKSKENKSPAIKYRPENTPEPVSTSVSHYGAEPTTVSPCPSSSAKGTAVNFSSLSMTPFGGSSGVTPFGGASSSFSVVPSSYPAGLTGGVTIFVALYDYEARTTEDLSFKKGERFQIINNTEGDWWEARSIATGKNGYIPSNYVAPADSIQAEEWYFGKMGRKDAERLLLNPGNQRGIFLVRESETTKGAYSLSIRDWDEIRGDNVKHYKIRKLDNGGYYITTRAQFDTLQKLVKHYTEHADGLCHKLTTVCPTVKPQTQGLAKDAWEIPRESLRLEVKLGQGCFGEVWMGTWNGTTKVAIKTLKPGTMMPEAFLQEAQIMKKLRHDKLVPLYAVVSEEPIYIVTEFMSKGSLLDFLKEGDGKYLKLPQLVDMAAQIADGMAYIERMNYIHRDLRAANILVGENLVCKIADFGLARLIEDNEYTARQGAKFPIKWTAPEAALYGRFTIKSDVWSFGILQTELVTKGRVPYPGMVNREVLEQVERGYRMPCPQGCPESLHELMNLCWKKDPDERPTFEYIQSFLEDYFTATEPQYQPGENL
UniProt P08659, whole entry, looked up: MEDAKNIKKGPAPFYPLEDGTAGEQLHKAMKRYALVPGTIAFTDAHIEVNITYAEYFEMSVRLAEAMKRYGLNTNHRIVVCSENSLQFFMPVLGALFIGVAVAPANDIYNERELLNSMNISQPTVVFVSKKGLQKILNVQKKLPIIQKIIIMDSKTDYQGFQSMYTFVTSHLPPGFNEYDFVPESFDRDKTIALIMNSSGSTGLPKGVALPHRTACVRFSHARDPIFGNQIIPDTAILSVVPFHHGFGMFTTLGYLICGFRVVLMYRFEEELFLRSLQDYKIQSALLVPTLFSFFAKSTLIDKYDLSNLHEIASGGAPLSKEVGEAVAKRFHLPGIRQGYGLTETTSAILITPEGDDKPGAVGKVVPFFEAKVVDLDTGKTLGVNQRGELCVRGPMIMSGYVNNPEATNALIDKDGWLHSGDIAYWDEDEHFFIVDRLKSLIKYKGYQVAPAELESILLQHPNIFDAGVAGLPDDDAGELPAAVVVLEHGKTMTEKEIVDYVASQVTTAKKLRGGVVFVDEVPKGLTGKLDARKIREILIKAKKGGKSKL
UniProt Q9NUW8, whole entry, looked up: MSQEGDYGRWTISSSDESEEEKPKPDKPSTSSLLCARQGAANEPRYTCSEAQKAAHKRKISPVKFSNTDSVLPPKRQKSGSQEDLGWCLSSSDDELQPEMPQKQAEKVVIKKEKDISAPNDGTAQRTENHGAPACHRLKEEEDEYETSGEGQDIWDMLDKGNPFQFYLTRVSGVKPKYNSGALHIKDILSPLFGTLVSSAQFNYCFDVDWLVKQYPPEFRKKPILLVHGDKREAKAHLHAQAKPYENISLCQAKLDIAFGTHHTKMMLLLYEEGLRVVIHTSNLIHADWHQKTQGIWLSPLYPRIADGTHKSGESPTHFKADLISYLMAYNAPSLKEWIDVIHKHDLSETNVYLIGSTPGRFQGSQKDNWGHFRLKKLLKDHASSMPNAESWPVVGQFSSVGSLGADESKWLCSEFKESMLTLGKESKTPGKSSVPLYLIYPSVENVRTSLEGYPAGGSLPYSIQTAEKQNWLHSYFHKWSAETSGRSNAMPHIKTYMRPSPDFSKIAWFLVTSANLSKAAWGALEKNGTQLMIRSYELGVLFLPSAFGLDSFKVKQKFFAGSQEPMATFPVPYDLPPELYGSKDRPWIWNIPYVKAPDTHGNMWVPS
UniProt P14618, whole entry, looked up: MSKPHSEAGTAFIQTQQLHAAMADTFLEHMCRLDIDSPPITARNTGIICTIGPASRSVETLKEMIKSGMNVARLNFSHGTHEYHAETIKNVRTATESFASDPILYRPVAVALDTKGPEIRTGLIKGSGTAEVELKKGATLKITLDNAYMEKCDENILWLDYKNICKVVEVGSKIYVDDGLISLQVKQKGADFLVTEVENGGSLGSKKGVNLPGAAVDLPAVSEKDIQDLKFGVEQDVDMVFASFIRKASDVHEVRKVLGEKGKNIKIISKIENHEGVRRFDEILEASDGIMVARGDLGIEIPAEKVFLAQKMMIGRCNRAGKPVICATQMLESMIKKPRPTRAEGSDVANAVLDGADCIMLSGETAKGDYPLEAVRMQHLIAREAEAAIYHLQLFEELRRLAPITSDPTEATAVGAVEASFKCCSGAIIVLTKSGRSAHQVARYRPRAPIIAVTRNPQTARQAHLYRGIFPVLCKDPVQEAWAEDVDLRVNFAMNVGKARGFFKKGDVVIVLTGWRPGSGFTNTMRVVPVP
UniProt O94782: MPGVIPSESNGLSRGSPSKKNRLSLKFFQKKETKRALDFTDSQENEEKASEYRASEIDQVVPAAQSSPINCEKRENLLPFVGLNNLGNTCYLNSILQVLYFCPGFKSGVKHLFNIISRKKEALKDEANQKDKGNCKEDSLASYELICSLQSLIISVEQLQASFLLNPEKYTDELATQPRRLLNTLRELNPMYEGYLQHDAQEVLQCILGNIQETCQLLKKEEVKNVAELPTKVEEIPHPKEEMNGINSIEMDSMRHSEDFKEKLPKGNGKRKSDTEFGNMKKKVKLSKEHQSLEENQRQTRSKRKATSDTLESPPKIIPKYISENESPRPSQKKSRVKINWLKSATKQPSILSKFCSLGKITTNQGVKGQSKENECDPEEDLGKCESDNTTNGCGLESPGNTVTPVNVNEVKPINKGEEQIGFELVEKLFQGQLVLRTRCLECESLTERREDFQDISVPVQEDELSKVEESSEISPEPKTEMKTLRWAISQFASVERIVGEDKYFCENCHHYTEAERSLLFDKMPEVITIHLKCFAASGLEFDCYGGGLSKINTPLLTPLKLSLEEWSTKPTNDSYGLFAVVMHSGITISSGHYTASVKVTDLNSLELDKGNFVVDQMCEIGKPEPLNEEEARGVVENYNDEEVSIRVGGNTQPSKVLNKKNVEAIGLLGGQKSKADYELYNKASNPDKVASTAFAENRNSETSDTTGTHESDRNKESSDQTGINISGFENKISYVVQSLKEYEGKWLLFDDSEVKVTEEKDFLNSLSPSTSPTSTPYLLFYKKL
UniProt Q96QE3: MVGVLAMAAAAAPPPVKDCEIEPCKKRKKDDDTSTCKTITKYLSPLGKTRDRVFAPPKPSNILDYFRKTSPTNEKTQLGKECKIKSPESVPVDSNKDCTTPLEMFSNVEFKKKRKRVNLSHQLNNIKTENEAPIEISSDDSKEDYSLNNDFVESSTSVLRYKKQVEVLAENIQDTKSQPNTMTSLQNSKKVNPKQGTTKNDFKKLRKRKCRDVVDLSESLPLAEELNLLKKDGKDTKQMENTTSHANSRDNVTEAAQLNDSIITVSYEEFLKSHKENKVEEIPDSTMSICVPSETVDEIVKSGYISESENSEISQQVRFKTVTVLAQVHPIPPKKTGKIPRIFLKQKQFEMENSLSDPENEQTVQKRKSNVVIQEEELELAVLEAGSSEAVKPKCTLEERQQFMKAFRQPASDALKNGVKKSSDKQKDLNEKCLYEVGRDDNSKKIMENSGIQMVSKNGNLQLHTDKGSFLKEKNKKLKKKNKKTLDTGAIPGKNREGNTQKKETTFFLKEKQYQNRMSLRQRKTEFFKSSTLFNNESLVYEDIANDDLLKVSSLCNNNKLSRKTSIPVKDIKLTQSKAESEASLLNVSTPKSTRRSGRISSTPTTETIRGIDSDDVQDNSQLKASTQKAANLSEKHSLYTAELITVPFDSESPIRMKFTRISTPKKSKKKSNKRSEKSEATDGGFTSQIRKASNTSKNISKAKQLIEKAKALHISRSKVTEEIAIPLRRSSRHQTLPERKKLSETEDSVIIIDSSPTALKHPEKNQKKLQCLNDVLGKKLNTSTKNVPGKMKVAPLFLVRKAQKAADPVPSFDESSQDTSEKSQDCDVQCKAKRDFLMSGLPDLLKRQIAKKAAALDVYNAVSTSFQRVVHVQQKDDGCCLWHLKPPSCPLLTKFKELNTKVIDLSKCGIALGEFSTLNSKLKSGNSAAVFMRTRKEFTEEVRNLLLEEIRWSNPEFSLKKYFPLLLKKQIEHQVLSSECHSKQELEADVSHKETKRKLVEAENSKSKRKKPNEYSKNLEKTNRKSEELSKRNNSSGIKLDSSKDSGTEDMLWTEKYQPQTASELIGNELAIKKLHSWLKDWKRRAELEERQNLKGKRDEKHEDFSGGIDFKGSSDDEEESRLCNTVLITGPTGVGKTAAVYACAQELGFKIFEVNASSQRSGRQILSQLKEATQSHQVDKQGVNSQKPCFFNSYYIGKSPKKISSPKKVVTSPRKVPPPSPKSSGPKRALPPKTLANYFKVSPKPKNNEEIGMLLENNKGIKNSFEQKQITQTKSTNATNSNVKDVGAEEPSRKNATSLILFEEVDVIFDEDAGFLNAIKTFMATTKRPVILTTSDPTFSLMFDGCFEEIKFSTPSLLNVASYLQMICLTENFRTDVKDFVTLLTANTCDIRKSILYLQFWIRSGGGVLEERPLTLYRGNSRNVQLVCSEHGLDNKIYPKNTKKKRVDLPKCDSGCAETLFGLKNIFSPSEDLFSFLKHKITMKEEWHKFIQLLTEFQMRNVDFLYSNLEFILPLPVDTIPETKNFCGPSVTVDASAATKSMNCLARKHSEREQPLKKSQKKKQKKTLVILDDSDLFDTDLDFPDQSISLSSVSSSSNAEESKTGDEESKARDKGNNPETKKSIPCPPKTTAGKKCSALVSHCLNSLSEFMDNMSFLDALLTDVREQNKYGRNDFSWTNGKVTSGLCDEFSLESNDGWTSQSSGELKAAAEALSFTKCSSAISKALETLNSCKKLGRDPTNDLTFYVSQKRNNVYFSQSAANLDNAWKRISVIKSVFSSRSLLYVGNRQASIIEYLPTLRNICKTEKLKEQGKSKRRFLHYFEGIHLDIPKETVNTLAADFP

What was measured:
[1] = biological target: Cytochrome P450 2D6 (Homo sapiens) (UniProt P10635); experiment: qHTS Assay for Inhibitors and Substrates of Cytochrome P450 2D6 (AID 891); also: potency is read from the fitted curve at half-maximal effect; nearly all actives have a fitted effect of over 60% in size
[2] = biological target: Cytochrome P450 2C9 (Homo sapiens) (UniProt P11712); experiment: qHTS Assay for Inhibitors and Substrates of Cytochrome P450 2C9 (AID 883); details: recombinant CYP2C9, luciferin-H luminescence, 60 min; at 57.1 µM (top of the series) unless noted; also: % is scaled to controls: 0 for no effect and ±100 for the full control effect; nearly all actives have a fitted effect of over 60% in size
[3] = biological target: Cytochrome P450 2C19 (Homo sapiens) (UniProt P33261); experiment: qHTS Assay for Inhibitors and Substrates of Cytochrome P450 2C19 (AID 899); also: nearly all actives have a fitted effect of over 60% in size; also: potency is read from the fitted curve at half-maximal effect
[4] = biological target: Voltage-gated inwardly rectifying potassium channel KCNH2 (Homo sapiens) (UniProt Q12809); experiment: qHTS Assay for Small Molecule Inhibitors of the Human hERG Channel Activity (AID 588834); details: U2OS BacMam hERG, FluxOR thallium flux fluorescence;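 also: potency is read from the fitted curve at half-maximal effect; lower thallium flux fluorescence means stronger hERG block; nearly all actives have a fitted effect of over 50% in size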
[5] = biological target: Tyrosine-protein kinase Yes (Homo sapiens) (UniProt P07947); experiment: qHTS for small molecule inhibitors of Yes1 kinase: Primary Screen (AID 686947); details: Yes1 kinase biochemical qHTS inhibition; also: potency is read from the fitted curve at half-maximal effect; nearly all actives have a fitted effect of over 60% in size
Outline: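 Yes1 (4 nM) preincubated 20 min with compound, then 60 min room-temperature reaction with 0.1 mM ATP and 0.3 mg/mL poly(E4Y) in pH 7.5 Tris, 10 mM MgCl2. ADP measured by ADP-Glo luminescence, normalised to enzyme/no-enzyme controls.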

[6] = biological target: Luciferin 4-monooxygenase (Photinus pyralis) (UniProt P08659); experiment: Biochemical firefly luciferase enzyme assay for NPC (AID 624030); also: potency is read from the fitted curve at half-maximal effect; nearly all actives have a fitted effect of over 70% in size; details: purified P. pyralis luciferase, luminescence, 5 min
Outline: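 Counter-screen for direct inhibition of the luciferase enzyme by approved-drug library compounds, run at 10 nM enzyme in 50 mM Tris acetate (final). Luminescence was read within 5 min of enzyme-buffer addition and normalized to PTC124 versus DMSO (0%).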

[7] = biological target: Tyrosyl-DNA phosphodiesterase 1 (Homo sapiens) (UniProt Q9NUW8); experiment: Confirmation Assay for Inhibitors of Tyrosyl-DNA Phosphodiesterase (TDP1) (AID 489007); details: recombinant human TDP1 enzymatic activity, dose-response; also: potency is read from the fitted curve at half-maximal effect; nearly all actives have a fitted effect of over 40% in size
Outline: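 Recombinant human Tdp1 (1 nM final), expressed in E. coli, preincubated 15 min with compound. Then 15 nM 5'-biotin/3'-phosphotyrosine-FITC DNA substrate added for 5 min at room temperature. AlphaScreen beads (10 ug/ml) added for 10 min; cleavage gives signal loss.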

[8] = qHTS profiling of the MIPE4 collection as inhibitors of Plasmodium falciparum (3D7) proliferation (AID 743344; call rule not given here;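 also: scaled between DMSO vehicle wells and 0.29 µM artemisinin as full inhibition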); details: P. falciparum 3D7 in erythrocytes, SYBR Green DNA fluorescence, 72 h; at 28.5 µM (top of the series)
Outline: (§1)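 Erythrocytes infected with P. falciparum (0.3% parasitemia, 2.5% hematocrit) incubated with compounds 72 h at 37 C, 5% CO2. Lysis with saponin/Triton buffer containing SYBR Green I, overnight at room temperature in the dark; DNA fluorescence (485/535 nm) normalised to 0.29 uM artemisinin and DMSO.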

[9] = qHTS profiling of the MIPE4 collection as inhibitors of Plasmodium falciparum (DD2) proliferation (AID 743345; call rule not given here); details: P. falciparum Dd2 in erythrocytes, SYBR Green DNA, 72 h; at 28.5 µM (top of the series)
Outline: as §1

[10] = qHTS profiling of the MIPE4 collection as inhibitors of Plasmodium falciparum (DD2) proliferation (Rep 2) (AID 743346; call rule not given here); details: P. falciparum Dd2 in erythrocytes, SYBR Green DNA, 72 h; at 28.5 µM (top of the series)
Outline: as §1

[11] = qHTS profiling of the MIPE4 collection as inhibitors of Plasmodium falciparum (HB3) proliferation (AID 743347; call rule not given here;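 also: plate controls were DMSO vehicle wells for no effect and artemisinin wells for full effect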); details: P. falciparum HB3 in erythrocytes, SYBR Green DNA, 72 h; at 28.5 µM (top of the series)
Outline: as §1

[12] = biological target: Pyruvate kinase PKM (Homo sapiens) (UniProt P14618); experiment: qHTS Assay for Activators of Human Muscle Pyruvate Kinase (AID 954; active = well fitted curve in the direction sought with a large enough effect, not every such curve was filed as active;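 also: 0% = uninhibited enzyme and -100% = no enzyme or full thiadiazolimine inhibition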); details: purified human muscle pyruvate kinase, luciferase-coupled luminescence, 1 h; at 57.5 µM (top of the series)
Outline: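 Purified human PKM2 (0.1 nM) with 0.5 mM PEP (Km) and 0.1 mM ADP in 50 mM imidazole pH 7.2, KCl, MgCl2, 1 h at room temperature; ATP formed read by coupled luciferase luminescence. Normalized to no-enzyme/110 uM thiadiazolimine inhibition; 0.3 nM enzyme column for activation.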

[13] = biological target: Vitamin D3 receptor (Homo sapiens) (UniProt P11473); experiment: qHTS assay for small molecule agonists of vitamin D receptor signaling (AID 588543; calls by dose curve;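 also: 0% = DMSO basal and 100% = reference agonist control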); details: HEK293T VDR-UAS-bla, beta-lactamase ratio, 16 h; at 76.8 µM (top of the series)
Outline: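 GeneBLAzer VDR-UAS-bla HEK293T cells in 2% charcoal-stripped FBS medium were dosed with compound titrations for 16 h at 37 °C; CCF4 β-lactamase readout (405 nm ex, 460/530 nm em). EC50 and efficacy from Hill fits, normalized to 50 nM calcitriol (100%) and DMSO (0%).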

[14] = biological target: Ubiquitin carboxyl-terminal hydrolase 1 (Homo sapiens) (UniProt O94782); experiment: Inhibitors of USP1/UAF1: Pilot qHTS (AID 504865); details: purified USP1/UAF1, Ub-rhodamine cleavage fluorescence; at 114 µM (top of the series);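 also: rhodamine fluorescence freed from ubiquitin-rhodamine substrate followed over time; top concentration of the series differs between compounds; % is scaled to controls: 0 for no effect and ±100 for the full control effect; nearly all actives have a fitted effect of over 35% in size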
Outline: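 USP1/UAF1 complex (1nM) preincubated with compound 15 min at room temperature, then Ub-Rho substrate (150nM final) added. Fluorescence read kinetically at 480/540 nm, 6 reads every 60 seconds. Buffer: 50mM HEPES pH 7.8, 0.5mM EDTA, 0.1 mg/ml BSA, 1mM TCEP, 0.01% Tween-20.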

[15] = Validation screen for small molecules that induce genotoxicity in human embryonic kidney (HEK293T) cells expressing luciferase-tagged ELG1 (AID 493106); details: luminescence; at 46.1 µM (top of the series); also: 0% is about no effect
Outline: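 HEK293T cells expressing luciferase-tagged ELG1, 2,000 cells/well, exposed to compound 16 hr at 37 °C, 5% CO2. Luciferase read after ONE-Glo, 30 min at room temperature; increased signal indicates genetic stress.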

[16] = biological target: ATPase family AAA domain-containing protein 5 (Homo sapiens) (UniProt Q96QE3); experiment: Validation screen for small molecules that inhibit ELG1-dependent DNA repair in human embryonic kidney (HEK293T) cells expressing luciferase-tagged ELG1 (AID 493107); details: HEK293T ELG1-luciferase level, luminescence; 5-fluorouridine co-treatment, 16 h; also: potency is read from the fitted curve at half-maximal effect; nearly all actives have a fitted effect of over 70% in size
Outline: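 HEK293T cells expressing luciferase-tagged ELG1, 2,000 per well, treated with 5-fluorouridine plus compound for 16 h at 37 C. ONE-Glo luminescence after 30 min at room temperature reports ELG1 reporter level.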

[17] = biological target: ATPase family AAA domain-containing protein 5 (Homo sapiens) (UniProt Q96QE3); experiment: HTS assay for small molecules that inhibit ELG1-dependent DNA repair in human embryonic kidney (HEK293T) cells expressing luciferase-tagged ELG1: Hit Confirmation (AID 624248); details: HEK293T ELG1-luciferase levels, luminescence; cells co-treated with 5-fluorouridine; also: potency is read from the fitted curve at half-maximal effect; nearly all actives have a fitted effect of over 55% in size
Outline: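 Cells (2,000/well) received 5-Fluorouridine plus pin-transferred compound or DMSO and were incubated 16 hr at 37 °C, 5% CO2. Luciferase activity was read by ONE-Glo luminescence after 30 min at room temperature; inhibitors suppress the signal.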

[18] = biological target: ATPase family AAA domain-containing protein 5 (Homo sapiens) (UniProt Q96QE3); experiment: qHTS screen for small molecules that inhibit ELG1-dependent DNA repair in human embryonic kidney (HEK293T) cells expressing luciferase-tagged ELG1: Hit Confirmation using MMS Stimulated ELG1 (AID 624249); details: HEK293T luciferase-tagged ELG1 level
Outline: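 ELG1-luciferase HEK293T cells were plated at 2,000 cells/well, and about 5 h later test compounds were pin-transferred alongside MMS (final 10 µM). After 16 h, luciferase activity was read with Amplight reagent; hits suppress the signal.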

[19] = qHTS screen for small molecules that inhibit ELG1-dependent DNA repair: Hit Confirmation with 5FU Viability (AID 624250); details: cell viability with 5-FU; at 46.1 µM (top of the series);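 also: viability measured 16 h after compound addition; % is scaled to controls: 0 for no effect and ±100 for the full control effect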
Outline: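 Luminescent ATP read-out (CellTiter-Glo) gives cell viability after 16 h exposure of ELG1-luc HEK293T cells to test compounds combined with 10 µM final 5-fluorouridine.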

[20] = qHTS screen for small molecules that inhibit ELG1-dependent DNA repair: Hit Confirmation with MMS Viability (AID 624251); details: Cell viability with MMS
Outline: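 Reporter HEK293T cells (ELG1-luc) receive compounds about 5 hours after plating, alongside 10 µM MMS, and are scored for viability by CellTiter-Glo following 16 hours of treatment.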

C#C[C@@]1(O)CC[C@H]2[C@H]3CCC4=Cc5oncc5C[C@]4(C)[C@@H]3CC[C@@]21C
Potency [1]: active: 25.1 µM

COc1cccc2c1C(=O)c1c(O)c3c(c(O)c1C2=O)C[C@](O)(C(C)=O)C[C@H]3O[C@@H]1C[C@H](N)[C@H](O)[C@H](C)O1
activity change, negative = inhibition [2]: inactive: 0.745% [at 25.6 µM]
Potency [3]: inactive

CC(C)COCC(CN(Cc1ccccc1)c1ccccc1)N1CCCC1 (stereo not given)
Potency [4]: active: 0.398 µM

CCN1CCN(Cc2ccc(-c3cc4c(N[C@H](C)c5ccccc5)ncnc4[nH]3)cc2)CC1
Potency [5]: active: 0.0027 µM

CCN(CC)C(=S)SSC(=S)N(CC)CC
Potency [3]: active: 5.01 µM and active: 794 nM

CNCCCN1c2ccccc2CCc2ccccc21
Potency [4]: active: 20 µM

O=C(c1ccccc1)c1ccc2n1CCC2C(=O)O (stereo not given)
Potency [6]: active: 11.4 µM

O=C(O)C1=CC(=C(c2ccc(O)c(C(=O)O)c2)c2ccc(O)c(C(=O)O)c2)C=CC1=O
Potency [7]: active: 16.2 nM and active: 22.4 nM and active: 57.6 nM

CN1C(C(=O)Nc2ccccn2)=C(O)c2sccc2S1(=O)=O
parasite growth, % of DMSO control [8]: 85.2%
parasite growth remaining, % of DMSO control (lower = more inhibition) [9]: 90.6%
parasite growth, % of control (lower = inhibition) [10]: 61.5%
growth, % of control [11]: 78.5%

Cc1ccc(C(=O)O[C@@H](C(=O)O)[C@@H](OC(=O)c2ccc(C)cc2)C(=O)O)cc1 (tested in a mixture with another compound)
activity change, negative = inhibition [12]: inactive: -24.2%

COc1cccc2c1C(=O)c1c(O)c3c(c(O)c1C2=O)C[C@@](O)(C(C)=O)C[C@@H]3O[C@H]1C[C@H](N)[C@H](O)[C@H](C)O1
activity change, negative = inhibition [2]: inactive: -3.75%
Potency [3]: inactive

C1CCC(C(CC2CCCCN2)C2CCCCC2)CC1 (stereo not given)
Potency [4]: active: 15.8 µM

CCCCC1C(=O)N(c2ccccc2)N(c2ccccc2)C1=O
activation [13]: inactive: -0.369%

NCCCC(O)(P(=O)(O)O)P(=O)(O)O
activity change, negative = inhibition [14]: inactive: -2.11% and inactive: -3.04%

Nc1ncn([C@@H]2O[C@H](CO)[C@@H](O)[C@H]2O)c(=O)n1
activity change, positive = ELG1 induction [15]: inactive: -20.5%
Potency [16]: active: 8.2 µM
Potency [17]: active: 5.6 µM
Potency [18]: active: 1.25 µM
activity change, negative = viability loss [19]: inactive: -5.21%
Potency [20]: active: 15.8 µM
